Consider 1 molecule from ChEMBL document CHEMBL1949507, “Synthesis and biological evaluation of [6]-gingerol analogues as transient receptor potential channel TRPV1 and TRPA1 modulators” (Bioorg Med Chem Lett, 2012).

Sequences of proteins named here, by UniProt entry; tags and fusion partners are left off.
UniProt Q8NER1, whole entry: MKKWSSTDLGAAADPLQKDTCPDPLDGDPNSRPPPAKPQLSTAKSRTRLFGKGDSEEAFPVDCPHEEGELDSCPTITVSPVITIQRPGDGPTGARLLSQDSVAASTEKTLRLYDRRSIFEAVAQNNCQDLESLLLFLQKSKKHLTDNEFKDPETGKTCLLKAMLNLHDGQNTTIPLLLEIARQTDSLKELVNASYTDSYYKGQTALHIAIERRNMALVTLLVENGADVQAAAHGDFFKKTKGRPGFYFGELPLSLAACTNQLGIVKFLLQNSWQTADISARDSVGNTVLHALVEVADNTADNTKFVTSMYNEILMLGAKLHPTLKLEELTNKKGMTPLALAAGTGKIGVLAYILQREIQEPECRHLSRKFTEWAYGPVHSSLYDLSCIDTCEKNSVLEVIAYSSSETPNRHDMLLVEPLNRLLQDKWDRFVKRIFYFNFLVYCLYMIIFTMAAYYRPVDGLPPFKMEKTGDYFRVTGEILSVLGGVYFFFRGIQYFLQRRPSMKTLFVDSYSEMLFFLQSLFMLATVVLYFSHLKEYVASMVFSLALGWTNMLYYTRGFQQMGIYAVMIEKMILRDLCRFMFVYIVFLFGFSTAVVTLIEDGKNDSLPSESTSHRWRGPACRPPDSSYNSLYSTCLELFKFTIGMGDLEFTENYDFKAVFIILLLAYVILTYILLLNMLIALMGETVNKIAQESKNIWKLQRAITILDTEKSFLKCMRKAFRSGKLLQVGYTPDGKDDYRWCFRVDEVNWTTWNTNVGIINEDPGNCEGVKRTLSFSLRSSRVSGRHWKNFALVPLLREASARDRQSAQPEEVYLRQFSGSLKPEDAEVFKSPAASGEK
UniProt Q6RI86, whole entry: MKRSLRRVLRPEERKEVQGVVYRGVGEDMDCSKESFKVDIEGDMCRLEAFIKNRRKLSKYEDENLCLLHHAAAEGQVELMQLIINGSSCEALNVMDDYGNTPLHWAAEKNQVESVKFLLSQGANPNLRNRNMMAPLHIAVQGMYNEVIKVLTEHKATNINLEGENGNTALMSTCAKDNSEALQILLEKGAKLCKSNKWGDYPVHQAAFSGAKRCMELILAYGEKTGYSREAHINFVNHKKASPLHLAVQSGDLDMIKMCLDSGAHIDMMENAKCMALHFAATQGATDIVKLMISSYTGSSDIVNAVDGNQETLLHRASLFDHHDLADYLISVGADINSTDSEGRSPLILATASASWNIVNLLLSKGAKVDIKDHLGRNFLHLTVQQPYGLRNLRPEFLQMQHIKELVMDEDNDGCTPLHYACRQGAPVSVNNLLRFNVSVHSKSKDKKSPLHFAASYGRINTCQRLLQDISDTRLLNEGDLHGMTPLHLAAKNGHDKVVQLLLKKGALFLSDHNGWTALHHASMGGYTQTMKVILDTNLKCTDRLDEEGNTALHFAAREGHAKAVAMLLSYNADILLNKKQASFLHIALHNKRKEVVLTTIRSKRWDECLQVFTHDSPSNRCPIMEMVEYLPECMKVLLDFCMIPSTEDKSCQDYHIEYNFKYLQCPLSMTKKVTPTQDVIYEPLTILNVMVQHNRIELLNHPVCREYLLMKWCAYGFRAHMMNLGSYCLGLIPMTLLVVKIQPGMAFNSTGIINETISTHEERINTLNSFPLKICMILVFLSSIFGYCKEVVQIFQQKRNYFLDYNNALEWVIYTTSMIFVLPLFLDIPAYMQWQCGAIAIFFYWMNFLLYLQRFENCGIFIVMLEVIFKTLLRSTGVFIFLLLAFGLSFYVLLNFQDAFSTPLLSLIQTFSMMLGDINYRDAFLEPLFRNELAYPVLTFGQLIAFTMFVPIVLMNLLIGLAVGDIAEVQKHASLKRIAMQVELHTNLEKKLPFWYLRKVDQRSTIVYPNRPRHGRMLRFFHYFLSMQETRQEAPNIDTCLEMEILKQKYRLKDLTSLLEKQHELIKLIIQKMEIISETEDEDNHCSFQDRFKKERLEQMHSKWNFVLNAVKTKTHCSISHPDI

Assay [1] addresses Transient receptor potential cation channel subfamily V member 1 (Homo sapiens, UniProt Q8NER1). Description: Agonist activity at human TRPV1 ion channel expressed in HEK293 cells assessed as calcium influx by fluo-4-Am-based fluorimetry relative to ionomycin. The format is functional, cell-based.
Assay [2] has as its target Transient receptor potential cation channel subfamily A member 1 (Rattus norvegicus) (UniProt Q6RI86). Description: Agonist activity at rat TRPA1 ion channel expressed in HEK293 cells assessed as calcium influx by fluo-4-Am-based fluorimetry relative to allyl isothiocyanate. In kind it is functional, cell-based.

As for `O=C(CCc1ccc2c(c1)OCO2)CC(O)CCCCCCc1ccccc1` (configuration not stated), the Efficacy in assay [1] and in assay [2] was less than 10% in each case.
